Laboratory results reported in ChEMBL document CHEMBL1240475, “Design and synthesis of novel isoxazole-based HDAC inhibitors” (Eur J Med Chem, 2010).

Target: T1, Polyamine deacetylase HDAC10 (Homo sapiens, UniProt Q969S8)
T1 sequence (Q969S8 whole entry): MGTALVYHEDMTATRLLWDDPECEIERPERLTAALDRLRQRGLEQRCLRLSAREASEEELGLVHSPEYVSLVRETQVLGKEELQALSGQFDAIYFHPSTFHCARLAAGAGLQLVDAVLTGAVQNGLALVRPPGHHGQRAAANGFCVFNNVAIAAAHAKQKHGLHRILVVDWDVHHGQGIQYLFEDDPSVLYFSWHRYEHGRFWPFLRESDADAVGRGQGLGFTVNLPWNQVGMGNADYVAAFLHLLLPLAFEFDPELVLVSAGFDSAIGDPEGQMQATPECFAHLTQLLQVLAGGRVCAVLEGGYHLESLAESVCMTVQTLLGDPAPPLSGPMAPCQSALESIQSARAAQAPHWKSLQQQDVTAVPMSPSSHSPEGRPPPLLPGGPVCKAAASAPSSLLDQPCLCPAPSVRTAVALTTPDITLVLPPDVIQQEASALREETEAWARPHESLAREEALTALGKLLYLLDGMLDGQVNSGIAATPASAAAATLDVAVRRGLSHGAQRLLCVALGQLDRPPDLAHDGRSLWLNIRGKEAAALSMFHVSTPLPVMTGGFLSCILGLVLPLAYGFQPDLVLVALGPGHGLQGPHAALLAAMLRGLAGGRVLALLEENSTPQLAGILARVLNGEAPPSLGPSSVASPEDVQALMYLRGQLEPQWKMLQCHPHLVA
Assay: Inhibition of HDAC10

IC50: 210 nM
SMILES: O=C(CCCCCCC(=O)Nc1ccccc1)NO [VORINOSTAT]
